What was measured:
Mus musculus [1] = assay: Compound was evaluated for analgesic activity against chemically induced pain in the mouse phenylquinone writhing (PQW) test following subcutaneous administration
Rattus norvegicus [2] = species: Rattus norvegicus; assay: Compound was evaluated for analgesic activity against Pressure induced pain in rats (inflamed paw)
Canis familiaris = species: Canis familiaris; assay: Compound was evaluated for analgesic activity against electrically stimulated tooth pulp pain in dogs.
Mus musculus [3] = assay: Compound was evaluated for analgesic activity against chemically induced pain in the mouse phenylquinone writhing (PQW) test following peroral administration
Rattus norvegicus [4] = species: Rattus norvegicus; assay: Compound was evaluated for analgesic activity against electrically stimulated tooth pulp pain in rats.
Rattus norvegicus [5] = species: Rattus norvegicus; assay: Compound was evaluated for analgesic activity against heat induced pain in rat (uninflamed paw)

Row | Compound | ED50 (Mus musculus [1]) [mg/kg] | ED50 (Rattus norvegicus [2]) [mg/kg] | ED50 (Canis familiaris) [mg/kg] | ED50 (Mus musculus [3]) [mg/kg] | ED50 (Rattus norvegicus [4]) [mg/kg] | ED50 (Rattus norvegicus [5]) [mg/kg]
1 | COc1cccc2c1CC[C@H](N1CCCC1)[C@H]2N(C)C(=O)Cc1ccc(Cl)c(Cl)c1.CS(=O)(=O)O | 0.46 | 26 | 1.3 | 6.2 | 3.2 | 31
2 | CN(C(=O)Cc1ccc(Cl)c(Cl)c1)C1CCCCC1N1CCCC1 (stereo not given) | 1.2 | – | – | 13 | – | –
3 | CN(C(=O)Cc1ccc(Cl)c(Cl)c1)[C@H]1c2ccccc2CC[C@@H]1N1CCCC1.Cl | 2.7 | – | – | 13 | – | –
